Molecular target: BK2 receptor (Rattus norvegicus, UniProt P25023)
Settings: Table A; recovery after washing

Sequences of proteins named here, by UniProt entry; tags and fusion partners are left off.
UniProt P25023, whole entry: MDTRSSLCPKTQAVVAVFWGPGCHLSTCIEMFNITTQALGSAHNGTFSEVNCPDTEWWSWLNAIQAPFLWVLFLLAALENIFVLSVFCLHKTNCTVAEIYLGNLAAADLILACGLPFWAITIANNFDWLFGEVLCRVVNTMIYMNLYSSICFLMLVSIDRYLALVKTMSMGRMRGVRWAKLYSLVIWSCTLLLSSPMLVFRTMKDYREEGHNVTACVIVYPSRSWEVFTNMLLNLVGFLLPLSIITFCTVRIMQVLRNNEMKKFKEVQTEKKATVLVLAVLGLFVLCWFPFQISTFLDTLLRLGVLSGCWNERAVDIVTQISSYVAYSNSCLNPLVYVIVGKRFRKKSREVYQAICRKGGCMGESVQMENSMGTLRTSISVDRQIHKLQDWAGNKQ

CC(C)C[C@H](NC(=O)[C@@H](Cc1ccccc1)NC(=O)[C@H](CS)NC(=O)[C@H](Cc1ccccc1)NC(=O)CNC(=O)[C@@H]1C[C@@H](O)CN1C(=O)[C@@H]1CCCN1C(=O)[C@H](CCCNC(=N)N)NC(=O)[C@H](N)CCCNC(=N)N)C(=O)N[C@@H](CCCNC(=N)N)C(=O)O [CP-0126]
RU % REC: 100%

From patent publication US5620958A, “Bradykinin antagonists” (Coretech, Inc., priority 1994, dated 1997)
